Measured values as given in patent publication US6365591B1, “Isoxazolecarboxamide derivatives” (Recordati, S.A., Chemical and Pharmacueticals Company, priority 1999, dated 2002).

Key:
[1] = molecular target: recombinant α1d-adrenoceptor (UniProt P25100); settings: read-out: Affinity for recombinant α1d-adrenoceptor subtype, Ki; [3H]prazosin, membranes of transfected cells; mean Ki
[2] = molecular target: T1, recombinant α1a-adrenoceptor (UniProt P35348); settings: read-out: Affinity for recombinant α1a-adrenoceptor subtype, Ki; [3H]prazosin, membranes of transfected cells; mean Ki
T1 sequence (P35348 1-466): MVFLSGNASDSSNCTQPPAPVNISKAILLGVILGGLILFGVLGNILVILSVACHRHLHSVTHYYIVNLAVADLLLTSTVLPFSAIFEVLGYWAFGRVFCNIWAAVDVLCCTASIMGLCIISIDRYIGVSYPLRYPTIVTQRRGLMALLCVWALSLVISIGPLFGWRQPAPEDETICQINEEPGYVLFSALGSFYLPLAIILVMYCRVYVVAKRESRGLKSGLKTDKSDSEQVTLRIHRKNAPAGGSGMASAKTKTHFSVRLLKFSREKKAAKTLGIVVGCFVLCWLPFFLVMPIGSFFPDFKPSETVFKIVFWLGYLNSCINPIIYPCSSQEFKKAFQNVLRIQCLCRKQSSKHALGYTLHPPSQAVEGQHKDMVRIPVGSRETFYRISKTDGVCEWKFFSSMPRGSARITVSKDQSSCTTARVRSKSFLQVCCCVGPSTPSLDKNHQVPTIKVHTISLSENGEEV

[3] = tested on: prostatic urethral pressure (hypogastric-nerve stimulation); settings: anaesthetised dogs, i.v.; data from Leonardi et al. 1997; cited from earlier work

Row | SMILES | Ki [1] | Ki [2] | UP ID50 HYP: dose inhibiting by 50% the urethral contractions induced by hypogastric-nerve stimulation [3]
1 | COc1ccccc1N1CCN(CCCNC(=O)c2cccc3c(=O)c(C)c(-c4ccccc4)oc23)CC1 [Compound A] | 1.51 nM | 0.65 nM | 
2 | COc1cc2nc(N3CCN(C(=O)c4ccco4)CC3)nc(N)c2cc1OC [prazosin] |  |  | 0.01 mg/kg
